Molecular target: T1, Cytochrome P450 2A6 (Homo sapiens, UniProt P11509)
T1 sequence (P11509 whole entry): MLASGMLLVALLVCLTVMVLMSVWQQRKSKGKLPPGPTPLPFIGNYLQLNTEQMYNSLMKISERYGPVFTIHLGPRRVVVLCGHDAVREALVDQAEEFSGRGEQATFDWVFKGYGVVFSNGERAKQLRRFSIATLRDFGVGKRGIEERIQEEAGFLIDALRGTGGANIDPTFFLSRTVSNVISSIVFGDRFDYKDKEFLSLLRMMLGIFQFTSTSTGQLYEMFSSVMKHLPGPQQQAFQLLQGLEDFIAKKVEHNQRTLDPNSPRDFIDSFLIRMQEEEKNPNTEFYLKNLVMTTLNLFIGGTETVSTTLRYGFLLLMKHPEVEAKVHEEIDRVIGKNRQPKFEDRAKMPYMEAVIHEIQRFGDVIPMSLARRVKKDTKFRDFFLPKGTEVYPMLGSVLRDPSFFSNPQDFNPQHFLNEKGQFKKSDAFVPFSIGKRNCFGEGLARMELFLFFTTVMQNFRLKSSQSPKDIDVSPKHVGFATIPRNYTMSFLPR
Assay: Inhibition of human CYP2A6

## CN(C)Cc1ccc(-c2cccnc2)o1
  Ki: 14.2 µM
